# Source: patent US20140107051A1, “ISOFLAVONES FOR TREATING MUCOPOLYSACCHARIDOSES” (INSTYTUT FARMACEUTYCZNY, priority 2005, published 2014)
# Test: in vitro
smiles,measurement,value
"O=c1c(-c2ccc(O)cc2)coc2cc(O)cc(O)c12 [Genistein, 4′,5,7-trihydroxy-3-phenylchromen-4-on, reference compound]",CC50 at 48 h,> 100 µM
